Measurements taken from publication PMC4519045 (PLoS ONE, 2015).

Assay: Time-course stability of spiked peptide hormones in plasma (MALDI-TOF MS and/or ELISA)
Settings: for half-life at 0.4 μM: human, plasma, t ½, RT (24 ±1°C), MALDI-TOF MS only, spiked ~0.4 μM, 0-96 h, peak ratio to control peptide, first-order
Experimental: For whole blood, the tests were carried out right after collection. […] For serum samples, the tubes were allowed to clot at RT for 60 minutes and then centrifuged under the same conditions as for plasma tubes. The collected plasma and serum samples were either used immediately or frozen immediately at -80°C until later usage.
The spiked samples were incubated in a temperature-controlled chamber at RT (25 ± 1°C) or on ice. […] For a semi-quantitative measurement, an appropriate control peptide was also included in the quenching solution. […] The clear supernatants were dried in a CentriVap Concentrator (Labconco, Kansas City, MO); the dried powders were then re-suspended in 10% ACN, 0.1% TFA solution, followed by Zip-Tip C18 extraction. A 1.0 μL aliquot of the eluted peptide solution was mixed with 1.0 μL of α-Cyano-4-hydroxycinnamic acid (CHCA:10 mg/mL in 50% ACN solution) as the matrix, and 1.5 μL mixture was spotted onto a MALDI target, air-dried, and analyzed by MALDI-TOF MS (Ultraflex II, Bruker Daltonics Inc., Billerica, MA).
Sample preparation procedures for Ab-based stability studies were similar to those in the time-course MALDI-TOF MS analysis. […] All Ab-based analyses were carried out with either individual or pooled samples from 3–4 subjects and with three replicates of each.
Finally, the plate was read at an excitation/emission wavelength of 355 nm/460 nm in a plate reader purchased from Tecan US (Morrisville, NC). […] The absorbance of each sample was measured at 450 nm and 590 nm in the plate reader.

In the case of `CC[C@H](C)[C@H](NC(=O)[C@H](CO)NC(=O)[C@H](Cc1ccc(O)cc1)NC(=O)[C@H](CC(=O)O)NC(=O)[C@H](CO)NC(=O)[C@@H](NC(=O)[C@H](Cc1ccccc1)NC(=O)[C@@H](NC(=O)CNC(=O)[C@H](CCC(=O)O)NC(=O)[C@H](C)NC(=O)[C@@H](N)Cc1ccc(O)cc1)[C@@H](C)O)[C@@H](C)CC)C(=O)N[C@@H](C)C(=O)N[C@@H](CCSC)C(=O)N[C@@H](CC(=O)O)C(=O)N[C@@H](CCCCN)C(=O)N[C@H](C(=O)N[C@@H](Cc1c[nH]cn1)C(=O)N[C@@H](CCC(N)=O)C(=O)N[C@@H](CCC(N)=O)C(=O)N[C@@H](CC(=O)O)C(=O)N[C@@H](Cc1ccccc1)C(=O)N[C@H](C(=O)N[C@@H](CC(N)=O)C(=O)N[C@@H](Cc1c[nH]c2ccccc12)C(=O)N[C@@H](CC(C)C)C(=O)N[C@@H](CC(C)C)C(=O)N[C@@H](C)C(=O)N[C@@H](CCC(N)=O)C(=O)N[C@@H](CCCCN)C(=O)NCC(=O)N[C@@H](CCCCN)C(=O)N[C@@H](CCCCN)C(=O)N[C@@H](CC(N)=O)C(=O)N[C@@H](CC(=O)O)C(=O)N[C@@H](Cc1c[nH]c2ccccc12)C(=O)N[C@@H](CCCCN)C(=O)N[C@@H](Cc1c[nH]cn1)C(=O)N[C@@H](CC(N)=O)C(=O)N[C@H](C(=O)N[C@H](C(=O)N[C@@H](CCC(N)=O)C(=O)O)[C@@H](C)O)[C@@H](C)CC)C(C)C)[C@@H](C)CC` [GIP(1–42), glucose-dependent insulinotropic polypeptide], the t½ (P800 plasma kept at 4°C, individual or pooled samples) was “greater than 96 hours”, the half-life at 0.4 μM (EDTA plasma, range = different individuals) was 20.6 h and the half-life at 0.4 μM (P800 plasma (protease inhibitors)) was > 96 h.
